The source of these data is patent US9849116B2 (KNOPP BIOSCIENCES LLC, priority 2008, dated 2017).

The series in a line: Phase I ascending single-dose safety and pharmacokinetic study. The series is classed as in vivo. The settings on record: human, plasma; single 150 mg oral dose, fed; read-out: t½ (mean ± SD) (converted).

For the compound `CCCN[C@@H]1CCc2nc(N)sc2C1` [(R)-pramipexole, (6R)-4,5,6,7-tetrahydro-N6-propyl-2,6-benzothiazole-diamine], the half-life was 6.28 ± 1.48 h.
